Experiments:
[1] = target: Shp1-C455S mutant (human); experiment: co-IP; 2 ug anti-Shp1 antibody added to 1 mg lysate of serum-starved NIH3T3 cells over-expressing Shp1 WT or mutant, overnight at 4 C, protein A or G beads; cells untreated or treated with 50 uM GroPIns4P for 5 min; Src detected by western blot and normalised to immunoprecipitated Shp1
[2] = target: cyan fluorescent protein (CFP)-labelled construct of Shp1 (Shp1-CFP) (human) (UniProt P29350); experiment: FRET or BRET; acceptor photobleaching FRET (apFRET), confocal microscope, serum-starved NIH3T3 cells co-transfected with Shp1-CFP and Src-YFP for 24 h, treated with 50 uM GroPIns4P for 5 min

Chains of the proteins cited; added tags and fusions are not shown. A line that says so, or that is headed by a name, gives the form on record, which may keep a tag or linker.
UniProt P29350, other isoform, or with tags, fused parts or gaps: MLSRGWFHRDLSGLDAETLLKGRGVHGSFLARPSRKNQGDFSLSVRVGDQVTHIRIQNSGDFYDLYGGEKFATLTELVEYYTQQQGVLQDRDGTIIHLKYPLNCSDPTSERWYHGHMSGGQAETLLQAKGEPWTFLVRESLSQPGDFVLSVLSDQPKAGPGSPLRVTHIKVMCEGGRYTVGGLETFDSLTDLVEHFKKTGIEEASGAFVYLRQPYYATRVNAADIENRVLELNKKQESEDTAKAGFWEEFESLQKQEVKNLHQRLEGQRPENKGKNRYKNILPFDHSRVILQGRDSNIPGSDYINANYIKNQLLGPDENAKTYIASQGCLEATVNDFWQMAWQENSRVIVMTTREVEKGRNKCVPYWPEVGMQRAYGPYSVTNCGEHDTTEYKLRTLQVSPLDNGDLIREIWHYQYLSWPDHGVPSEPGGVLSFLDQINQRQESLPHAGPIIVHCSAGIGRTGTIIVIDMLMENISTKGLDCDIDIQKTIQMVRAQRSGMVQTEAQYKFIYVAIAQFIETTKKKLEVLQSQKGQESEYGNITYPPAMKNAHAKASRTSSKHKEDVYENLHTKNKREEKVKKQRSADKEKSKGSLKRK

fold increase of the interaction with 50 uM GroPIns4P against the untreated control [1] [fold]	FRET efficiency in hot spots of the lamellar regions, with 50 uM GroPIns4P [2] [%]	FRET efficiency, average over the cell, with 50 uM GroPIns4P [2] [%]	Substance
2.2	–	–	Src (from UniProt P05480-2 1-535) (enzyme)
–	> 20	9	yellow fluorescent protein (YFP)-conjugated Src (Src-YFP) (from UniProt P12931 1-536) (enzyme; other documents disagree on this pair)
